Data reported in ChEMBL document CHEMBL5634075, “An electrophilic fragment screening for the development of small molecules targeting caspase-2” (Eur J Med Chem, 2023).

System: HepG2
Experiment: Induction of GSH depletion in human HepG2 cells measured after 22 hrs by GSH-glo luminescence assay
Type: functional, cell-based

Question: For `Cc1nc(-c2ccc3c(c2)CCN3C(=O)CCl)cs1`, which Activity is on record?
Answer: Dose-Dependent Effect
